# Laboratory results taken from patent US20100009907A1, “Glucagon-Like Peptides and Uses Thereof” (AMYLIN PHARMACEUTICALS, INC., priority 2006, published 2010).
# What was measured:
# [1] = target: T1, RINm5f cells expressing endogenous GLP-1, calcitonin, and GIP receptors (Rattus norvegicus, UniProt P32301); experiment: GLP/GIP/CT cAMP (RIN) assay; assay type: cell-based
# T1 construct: RINm5f cells expressing endogenous GLP-1, calcitonin, and GIP receptors; endogenous in cells; host or cells: RINm5f cells
# T1 sequence (P32301 22-463): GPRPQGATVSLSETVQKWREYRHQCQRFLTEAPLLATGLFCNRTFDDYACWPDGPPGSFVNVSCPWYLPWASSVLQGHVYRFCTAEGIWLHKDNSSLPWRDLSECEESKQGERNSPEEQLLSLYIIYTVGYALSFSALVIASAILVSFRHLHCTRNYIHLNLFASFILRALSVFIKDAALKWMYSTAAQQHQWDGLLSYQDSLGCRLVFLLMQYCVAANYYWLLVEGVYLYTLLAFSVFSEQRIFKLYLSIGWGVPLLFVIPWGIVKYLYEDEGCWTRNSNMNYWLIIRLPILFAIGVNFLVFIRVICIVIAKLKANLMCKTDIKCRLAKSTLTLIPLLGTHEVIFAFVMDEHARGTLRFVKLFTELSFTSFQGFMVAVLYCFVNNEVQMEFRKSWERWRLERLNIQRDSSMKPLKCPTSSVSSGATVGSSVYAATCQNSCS
# Description: In addition, receptor binding can be measured using cells prepared from confluent cultures of RINm5f cells expressing endogenous GLP-1, calcitonin, and GIP receptors. Cells, and peptide or buffer solution are combined in 384-well plates. After a 30-minute incubation at room temperature in air, cAMP content is measured as recommended in the Perkin-Elmer AlphaScreen kit instructions.
# Cells, and peptide or buffer solutions are combined in 384-well plates and incubated at room temperature in air for 30-minutes. cAMP content can then be measured according to recommendations in the Perkin-Elmer AlphaScreen™ kit instructions using the Perkin Elmer Fusion fluorimeter and data are analyzed using XLfit software (IDBS).
# [2] = Acute food intake assay (FI Assay); assay type: in vivo, NIH/Swiss mice; conditions: 1000 μg/kg intraperitoneal, relative to vehicle
# Description: The effect of various test peptides on food intake is investigated using an acute food intake assay. This assay measures food consumption in lean, group-housed, overnight-fasted NIH/Swiss mice. Twelve mice are housed three to a cage. […] Decreased, as well as increased, food intake is measured. Testing of the various doses of the polypeptide generates ED50s.
# Female NIH/Swiss mice (8-24 weeks old) are group housed with a 12:12 hour light:dark cycle with lights on at 0600. Water and a standard pelleted mouse chow diet are available ad libitum, except as noted. Animals are fasted starting at approximately 1500 hrs, 1 day prior to experiment. The morning of the experiment, animals are divided into experimental groups.
# At time=0 min, all animals are given an intraperitoneal injection of vehicle or compound in an amount ranging from about 63 to 1000 μg/kg, and immediately given a pre-weighed amount (10-15 g) of the standard chow.
GLP/GIP/CT cAMP(RIN) EC50 [1] [nM],SMILES,Food Intake % inhibition 30 min [2] [%],Food Intake % inhibition 60 min [2] [%],Food Intake % inhibition 120 min [2] [%],Food Intake % inhibition 180 min [2] [%]
19,CC[C@H](C)[C@H](NC(=O)[C@H](CC(C)C)NC(=O)[C@H](Cc1c[nH]c2ccccc12)NC(=O)[C@H](CC(=O)O)NC(=O)[C@@H](NC(=O)[C@H](Cc1ccccc1)NC(=O)[C@H](CCC(=O)O)NC(=O)[C@H](CCCCN)NC(=O)[C@H](C)NC(=O)[C@H](C)NC(=O)[C@H](CCCCN)NC(=O)[C@H](CCC(=O)O)NC(=O)[C@H](CC(=O)O)NC(=O)[C@H](CC(C)C)NC(=O)[C@H](CCC(N)=O)NC(=O)[C@H](CCC(N)=O)NC(=O)[C@@H](NC(=O)[C@@H](NC(=O)[C@H](CC(=O)O)NC(=O)[C@H](CO)NC(=O)[C@@H](NC(=O)[C@H](Cc1ccccc1)NC(=O)[C@@H](NC(=O)CNC(=O)[C@H](CCC(=O)O)NC(=O)[C@@H](C)NC(=O)[C@@H](N)Cc1c[nH]cn1)[C@@H](C)O)[C@@H](C)O)C(C)C)[C@@H](C)O)[C@@H](C)CC)C(=O)N[C@@H](CC(N)=O)C(N)=O [compound 8],,,,
0.048,CC[C@H](C)[C@H](NC(=O)[C@H](CC(C)C)NC(=O)[C@H](Cc1c[nH]c2ccccc12)NC(=O)[C@H](CC(=O)O)NC(=O)[C@@H](NC(=O)[C@H](Cc1ccccc1)NC(=O)[C@H](CCC(=O)O)NC(=O)[C@H](CCCCN)NC(=O)[C@H](C)NC(=O)[C@H](C)NC(=O)[C@H](CCCCN)NC(=O)[C@H](CCC(=O)O)NC(=O)[C@H](CC(=O)O)NC(=O)[C@H](CC(C)C)NC(=O)[C@H](CCC(N)=O)NC(=O)[C@H](CCC(N)=O)NC(=O)[C@@H](NC(=O)[C@@H](NC(=O)[C@H](CC(=O)O)NC(=O)[C@H](CO)NC(=O)[C@@H](NC(=O)[C@H](Cc1ccccc1)NC(=O)[C@@H](NC(=O)CNC(=O)[C@H](CCC(=O)O)NC(=O)[C@@H](C)NC(=O)[C@@H](N)Cc1c[nH]cn1)[C@@H](C)O)[C@@H](C)O)C(C)C)[C@@H](C)O)[C@@H](C)CC)C(=O)N[C@@H](CC(N)=O)C(=O)NCC(=O)NCC(=O)N1CCC[C@H]1C(=O)N[C@@H](CO)C(=O)N[C@@H](CCCCN)C(=O)N[C@@H](CCC(=O)O)C(=O)N[C@H](C(=O)N[C@H](C(=O)N[C@@H](CO)C(N)=O)[C@@H](C)CC)[C@@H](C)CC [compound 10],,,,
,CC[C@H](C)[C@H](NC(=O)[C@H](CC(C)C)NC(=O)[C@H](Cc1c[nH]c2ccccc12)NC(=O)[C@H](CC(=O)O)NC(=O)[C@@H](NC(=O)[C@H](Cc1ccccc1)NC(=O)[C@H](CCC(=O)O)NC(=O)[C@H](CCCCN)NC(=O)[C@H](C)NC(=O)[C@H](C)NC(=O)[C@H](CCCCN)NC(=O)[C@H](CCC(=O)O)NC(=O)[C@H](CC(=O)O)NC(=O)[C@H](CC(C)C)NC(=O)[C@H](CCC(N)=O)NC(=O)[C@H](CCC(N)=O)NC(=O)[C@@H](NC(=O)[C@@H](NC(=O)[C@H](CC(=O)O)NC(=O)[C@H](CO)NC(=O)[C@@H](NC(=O)[C@H](Cc1ccccc1)NC(=O)[C@@H](NC(=O)CNC(=O)[C@H](CCC(=O)O)NC(=O)[C@@H](C)NC(=O)[C@@H](N)Cc1c[nH]cn1)[C@@H](C)O)[C@@H](C)O)C(C)C)[C@@H](C)O)[C@@H](C)CC)C(=O)N[C@@H](CC(N)=O)C(=O)NCC(=O)NCC(=O)N1CCC[C@H]1C(=O)N[C@@H](CO)C(=O)N[C@@H](CCCCN)C(=O)N[C@@H](CCC(=O)O)C(=O)N[C@H](C(=O)N[C@H](C(=O)N[C@@H](CCCCNC(=O)CCC(C)C)C(N)=O)[C@@H](C)CC)[C@@H](C)CC [compound 15],70,81,83,84
,CCCCCCCCCNC(=O)CSC[C@H](NC(=O)[C@H](C)NC(=O)[C@H](C)NC(=O)[C@H](CCCCN)NC(=O)[C@H](CCC(=O)O)NC(=O)[C@H](CC(=O)O)NC(=O)[C@H](CC(C)C)NC(=O)[C@H](CCC(N)=O)NC(=O)[C@H](CCC(N)=O)NC(=O)[C@@H](NC(=O)[C@@H](NC(=O)[C@H](CC(=O)O)NC(=O)[C@H](CO)NC(=O)[C@@H](NC(=O)[C@H](Cc1ccccc1)NC(=O)[C@@H](NC(=O)[C@H](Cc1ccccc1)NC(=O)[C@H](CCC(=O)O)NC(=O)[C@@H](C)NC(=O)[C@@H](N)Cc1c[nH]cn1)[C@@H](C)O)[C@@H](C)O)C(C)C)[C@@H](C)O)C(=O)N[C@@H](CCC(=O)O)C(=O)N[C@@H](Cc1ccccc1)C(=O)N[C@H](C(=O)N[C@@H](CC(=O)O)C(=O)N[C@@H](Cc1c[nH]c2ccccc12)C(=O)N[C@@H](CC(C)C)C(=O)N[C@H](C(=O)N[C@@H](CC(N)=O)C(=O)NCC(=O)NCC(=O)N1CCC[C@H]1C(=O)N[C@@H](CO)C(=O)N[C@@H](CCCCN)C(=O)N[C@@H](CCC(=O)O)C(=O)N[C@H](C(=O)N[C@H](C(=O)N[C@@H](CO)C(N)=O)[C@@H](C)CC)[C@@H](C)CC)[C@@H](C)CC)[C@@H](C)CC [compound 17],49,68,77,79
,CCCCCCCC[C@H](NC(=O)[C@H](C)NC(=O)[C@H](C)NC(=O)[C@H](CCCCN)NC(=O)[C@H](CCC(=O)O)NC(=O)[C@H](CC(=O)O)NC(=O)[C@H](CC(C)C)NC(=O)[C@H](CCC(N)=O)NC(=O)[C@H](CCC(N)=O)NC(=O)[C@@H](NC(=O)[C@@H](NC(=O)[C@H](CC(=O)O)NC(=O)[C@H](CO)NC(=O)[C@@H](NC(=O)[C@H](Cc1ccccc1)NC(=O)[C@@H](NC(=O)[C@H](Cc1ccccc1)NC(=O)[C@H](CCC(=O)O)NC(=O)[C@@H](C)NC(=O)[C@@H](N)Cc1c[nH]cn1)[C@@H](C)O)[C@@H](C)O)C(C)C)[C@@H](C)O)C(=O)N[C@@H](CCC(=O)O)C(=O)N[C@@H](Cc1ccccc1)C(=O)N[C@H](C(=O)N[C@@H](CC(=O)O)C(=O)N[C@@H](Cc1c[nH]c2ccccc12)C(=O)N[C@@H](CC(C)C)C(=O)N[C@H](C(=O)N[C@@H](CC(N)=O)C(=O)NCC(=O)NCC(=O)N1CCC[C@H]1C(=O)N[C@@H](CO)C(=O)N[C@@H](CCCCN)C(=O)N[C@@H](CCC(=O)O)C(=O)N[C@H](C(=O)N[C@H](C(=O)N[C@@H](CO)C(N)=O)[C@@H](C)CC)[C@@H](C)CC)[C@@H](C)CC)[C@@H](C)CC [compound 18],14,40,59,62
,CC[C@H](NC(=O)[C@@H](N)Cc1c[nH]cn1)C(=O)N[C@@H](CCC(=O)O)C(=O)NCC(=O)N[C@H](C(=O)N[C@@H](Cc1ccc(O)cc1)C(=O)N[C@H](C(=O)N[C@@H](CC(N)=O)C(=O)N[C@@H](CC(=O)O)C(=O)N[C@H](C(=O)N[C@H](C(=O)N[C@@H](CCC(=O)O)C(=O)N[C@@H](Cc1ccc(O)cc1)C(=O)N[C@@H](CC(C)C)C(=O)N[C@@H](CCC(=O)O)C(=O)N[C@@H](CCC(=O)O)C(=O)N[C@@H](CCCCN)C(=O)N[C@@H](C)C(=O)N[C@@H](C)C(=O)N[C@@H](CCCCN)C(=O)N[C@@H](CCC(=O)O)C(=O)N[C@@H](Cc1ccccc1)C(=O)N[C@H](C(=O)N[C@@H](CCC(=O)O)C(=O)N[C@@H](Cc1c[nH]c2ccccc12)C(=O)N[C@@H](CC(C)C)C(=O)N[C@H](C(=O)N[C@@H](CCCCN)C(=O)NCC(=O)N[C@@H](CCCCN)C(=O)N1CCC[C@H]1C(=O)N[C@@H](CCCCN)C(=O)N[C@@H](CCCCN)C(=O)N[C@H](C(=O)N[C@@H](CCCNC(=N)N)C(=O)N[C@@H](Cc1ccc(O)cc1)C(=O)N[C@@H](CO)C(N)=O)[C@@H](C)CC)[C@@H](C)CC)[C@@H](C)CC)[C@@H](C)O)C(C)C)[C@@H](C)O)[C@@H](C)O [compound 28],44,60,69,62
